Common to all, as to test: competition with labeled probe peptide, purified HLA class I
Test [1] deals with HLA-B*1801 (human).
Test [2] has as its target HLA-B*4501 (human).
In test [3] the target is HLA-B*4001 (human).

By IC50 is commonly meant the concentration that inhibits the measured activity by half. A low value points to higher potency.

In the case of “SEQ ID NO 717, 7-mer of MAGE2 at position 234 (printed as WEELSML) (peptide)”, the IC50 was 17.7 µM in test [1] and 15.1 µM in test [2].
In the case of “SEQ ID NO 718, 7-mer of MAGE2 at position 252 (printed as WEELSML) (peptide)”, the IC50 in test [3] was 6.58 µM; in test [1], 8.29 µM.
